These results are taken from ChEMBL document CHEMBL1156692, “Synthesis of novel 7-benzylamino-2H-1,4-benzoxazin-3(4H)-ones as anticonvulsant agents” (Eur J Med Chem, 2008).

SMILES strings stand for the structures.

For the experiment, the species on record is Mus musculus. The experiment is described as follows: Protective index, ratio of TD50 for C57B/6 mouse by rotarod test to ED50 for C57BL/6 mouse by MES test. The format is functional. (In general: In the rotarod test animals must keep their balance on a rotating rod.)

Consider `NC(=O)N1c2ccccc2C=Cc2ccccc21` [CARBAMAZEPINE], for which the Ratio is listed as 8.1.
